{"source": "paper PMC7615931", "about": "(Science (New York, N.Y.), 2024)", "proteins": {"B1": {"name": "β-arrestin 1 (βarr1), purified (natural protein, UniProt P29066 1-418, looked up)", "chain": "MGDKGTRVFKKASPNGKLTVYLGKRDFVDHIDLVDPVDGVVLVDPEYLKERRVYVTLTCAFRYGREDLDVLGLTFRKDLFVANVQSFPPAPEDKKPLTRLQERLIKKLGEHAYPFTFEIPPNLPCSVTLQPGPEDTGKACGVDYEVKAFCAENLEEKIHKRNSVRLVIRKVQYAPERPGPQPTAETTRQFLMSDKPLHLEASLDKEIYYHGEPISVNVHVTNNTNKTVKKIKISVRQYADICLFNTAQYKCPVAMEEADDTVAPSSTFCKVYTLTPFLANNREKRGLALDGKLKHEDTNLASSTLLREGANREILGIIVSYKVKVKLVVSRGGLLGDLASSDVAVELPFTLMHPKPKEEPPHREVPESETPVDTNLIELDTNDDDIVFEDFARQRLKGMKDDKDEEDDGTGSPHLNNR"}}, "molecular_target": "the molecule itself", "assay": "cryo-EM structure"}
{"protein": "B1", "values": [{"measurement": "stoichiometry N", "value": 2}]}
